This passage reports inhibition results from ChEMBL document CHEMBL4038344, “Novel Diarylurea Based Allosteric Modulators of the Cannabinoid CB1 Receptor: Evaluation of Importance of 6-Pyrrolidinylpyridinyl Substitution” (J Med Chem, 2017).

The target of the experiment is Cannabinoid receptor 1 (Mus musculus) (UniProt P47746). As to the kind of experiment: PAM antagonist activity at CB1 receptor in CD-1 mouse cerebellar membranes assessed as inhibition of CP55,940-induced [35S]GTPgammaS binding after 60 mins. Particulars: Cerebellum, Membrane. (Binding of GTPγS marks nucleotide exchange on a G protein.)

Turning to `O=C(Nc1ccc(Cl)cc1)Nc1cccc(-c2cccc(N3CCCC3)n2)c1`, the inhibition result was “Dose-dependent effect”.
